Results taken from patent US20060189650A1, “Novel piperidine derivatives as modulators of chemokine receptor ccr5” (priority 2002, published 2006).

Chains of the proteins cited; added tags and fusions are not shown.
UniProt P51681, whole entry: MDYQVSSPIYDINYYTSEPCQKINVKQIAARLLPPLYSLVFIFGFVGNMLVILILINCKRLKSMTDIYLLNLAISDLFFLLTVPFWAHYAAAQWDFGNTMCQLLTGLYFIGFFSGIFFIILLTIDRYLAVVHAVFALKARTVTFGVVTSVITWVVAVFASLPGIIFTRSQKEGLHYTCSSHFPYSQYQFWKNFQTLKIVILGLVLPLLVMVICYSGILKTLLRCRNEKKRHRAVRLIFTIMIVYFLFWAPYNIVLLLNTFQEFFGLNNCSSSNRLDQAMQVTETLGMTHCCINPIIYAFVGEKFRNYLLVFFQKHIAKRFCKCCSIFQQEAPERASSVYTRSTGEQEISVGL

Target: recombinant human CCR5 receptor (Homo sapiens, UniProt P51681)
Experiment: MIP-1α radioligand binding assay (scintillation proximity, CHO cell membranes)
Details: negative log (base 10) of IC50, displacement of 0.1 nM iodinated MIP-1α, average if tested more than once
Protocol: The ability of compounds to inhibit the binding of MIP-1α was assessed by an in vitro radioligand binding assay. Membranes were prepared from Chinese hamster ovary cells which expressed the recombinant human CCR5 receptor. These membranes were incubated with 0.1 nM iodinated MIP-1α, scintillation proximity beads and various concentrations of the compounds of the invention in 96-well plates. The amount of iodinated MIP-1α bound to the receptor was determined by scintillation counting. Competition curves were obtained for compounds and the concentration of compound which displaced 50% of bound iodinated MIP-1α was calculated (IC50).
In Table XV the results are presented as Pic50 values. A Pic50 value is the negative log (to base 10) of the IC50 result, so an IC50 of 1 μM (that is 1×10^−6M) gives a Pic50 of 6. If a compound was tested more than once then the data below is an average of the probative tests results.

SMILES | Pic50 | Pic50 (listed as I 8) | Pic50 (listed as III 1)
CS(=O)(=O)c1ccc(S(=O)(=O)CCC2CCN(CCC(c3ccccc3)C3CCN(S(C)(=O)=O)CC3)CC2)cc1 (centres unmarked) | 7.9 | – | –
Cn1nnnc1COc1ccc(S(=O)(=O)CCC2CCN(CC[C@H](c3ccc(S(C)(=O)=O)cc3)c3cc(F)cc(F)c3)CC2)cc1 | 8.85 | – | –
CS(=O)(=O)c1ccc(S(=O)(=O)CCC2CCN(CCC(c3ccccc3)N3CCN(c4ccccc4)CC3)CC2)cc1 (single isomer, unassigned) | – | 8.58 | 8.8
CS(=O)(=O)c1ccc([C@@H](CCN2CCC(CS(=O)(=O)Cc3ccccc3)CC2)c2ccccc2)cc1 | 8.95 | – | –
CS(=O)(=O)c1ccc(S(=O)(=O)CCC2CCN(CC[C@@H](c3cc(F)cc(F)c3)C3CCSCC3)CC2)cc1 | 9.3 | – | –
CS(=O)(=O)N1CCC(C(CCN2CCC(CCS(=O)(=O)c3ccccc3)CC2)c2ccccc2)CC1 (centres unmarked) | 8.63 | – | –
CN(C)S(=O)(=O)N1CCC([C@@H](CCN2CCC(CCS(=O)(=O)c3ccc(S(C)(=O)=O)cc3)CC2)c2cc(F)cc(F)c2)CC1 | 9.0 | – | –
